Results on 27 compounds are retold here after patent US11814364B2, “Pyridine N-oxide derivatives useful as factor XIa inhibitors” (Janssen Pharmaceutica NV, priority 2021, dated 2023).

The chains behind the UniProt entries cited, without tags or fusion partners. Residues count along the entry.
UniProt P03952, 391-638 limits assumed: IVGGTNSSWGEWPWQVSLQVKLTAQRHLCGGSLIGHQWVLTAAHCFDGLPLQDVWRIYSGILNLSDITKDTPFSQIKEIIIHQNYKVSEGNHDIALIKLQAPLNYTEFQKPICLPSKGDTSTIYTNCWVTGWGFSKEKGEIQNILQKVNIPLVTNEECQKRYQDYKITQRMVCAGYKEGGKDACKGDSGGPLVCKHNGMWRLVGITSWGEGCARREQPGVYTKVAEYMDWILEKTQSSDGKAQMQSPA
UniProt P03952, 20-390 partner limits assumed: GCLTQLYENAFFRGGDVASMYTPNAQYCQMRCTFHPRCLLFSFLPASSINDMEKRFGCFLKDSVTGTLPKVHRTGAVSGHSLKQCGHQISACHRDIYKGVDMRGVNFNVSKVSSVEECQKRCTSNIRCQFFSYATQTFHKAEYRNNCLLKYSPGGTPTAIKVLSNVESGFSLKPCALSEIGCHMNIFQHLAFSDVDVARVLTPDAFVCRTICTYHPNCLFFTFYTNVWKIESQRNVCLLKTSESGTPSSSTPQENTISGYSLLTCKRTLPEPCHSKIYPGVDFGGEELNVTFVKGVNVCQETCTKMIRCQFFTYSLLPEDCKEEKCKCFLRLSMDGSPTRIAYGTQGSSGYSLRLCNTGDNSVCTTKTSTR
UniProt P03951, 388-625 limits assumed: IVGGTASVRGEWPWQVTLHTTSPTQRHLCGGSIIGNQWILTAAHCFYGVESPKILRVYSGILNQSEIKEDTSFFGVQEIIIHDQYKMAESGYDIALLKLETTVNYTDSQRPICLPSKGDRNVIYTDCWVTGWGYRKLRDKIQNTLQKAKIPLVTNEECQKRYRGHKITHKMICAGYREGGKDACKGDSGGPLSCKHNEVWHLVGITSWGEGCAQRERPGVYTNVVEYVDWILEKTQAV
UniProt P03951, 19-387 partner limits assumed: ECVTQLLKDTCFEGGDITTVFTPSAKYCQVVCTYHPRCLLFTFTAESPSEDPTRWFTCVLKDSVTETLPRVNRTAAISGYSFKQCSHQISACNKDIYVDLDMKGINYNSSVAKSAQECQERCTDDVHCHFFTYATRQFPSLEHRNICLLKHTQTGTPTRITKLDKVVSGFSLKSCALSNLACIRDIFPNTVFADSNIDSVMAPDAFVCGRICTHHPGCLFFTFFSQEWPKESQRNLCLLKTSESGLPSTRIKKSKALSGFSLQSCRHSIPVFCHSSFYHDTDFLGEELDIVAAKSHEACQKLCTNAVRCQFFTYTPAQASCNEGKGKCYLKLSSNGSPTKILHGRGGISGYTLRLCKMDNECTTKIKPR

Each structure is given as a SMILES string. pIC50: −log10 of the molar value.

For the first experiment, the target named is human plasma kallikrein (Homo sapiens, UniProt P03952). As to the kind of experiment: Kallikrein inhibition FLINT assay with quenched AMC peptide substrate Z-Gly-Pro-Arg-AMC (end point EP or kinetic KIN reads). To be noted: read-out: Kallikrein (EP) IC50; end point read at 30 min. Format: biochemical.
With `Nc1ccc(-c2cnn(C(Cc3ccccc3)c3ccc(-c4cc(Cl)ccc4-n4cnnn4)c[n+]3[O-])c2)c(F)n1` (stereo not shown), the pIC50 is 7.90.

Still in this experiment, the particulars now being: read-out: Kallikrein (KIN) IC50; kinetic reads at 5 min intervals over 30 min.
As to `O=C(C1CC1CC(c1ccc(-c2c(-n3cnnn3)ccc(Cl)c2F)c[n+]1[O-])n1cc(-c2ccncc2)cn1)N1CCC2(CC2)C1` (stereo not shown), the pIC50 is 6.16. Take `O=C(O)C1CN(C(=O)C2CC2CC(c2ccc(-c3c(-n4cnnn4)ccc(Cl)c3F)c[n+]2[O-])n2cc(-c3ccncc3)cn2)CC12CC2` (stereo not shown): the negative-log IC50 (pIC50) is 6.96. Still for that read-out and setting: then `[O-][n+]1cc(-c2c(-n3cnnn3)ccc(Cl)c2F)ccc1[C@@H](Cc1ccc(F)cc1)n1cc(-c2cnn(C(F)F)n2)cn1`, with 7.56. On the same count and under the same terms, the same measure for `[O-][n+]1cc(-c2c(-n3cnnn3)ccc(Cl)c2F)ccc1[C@H](Cc1ccn(C(F)F)n1)n1cc(-c2ccnc(C(F)(F)F)c2)cn1`: 6.45.

As to `[O-][n+]1cc(-c2c(-n3cnnn3)ccc(Cl)c2F)ccc1[C@@H](Cc1ccn(C(F)F)n1)n1cc(-c2ccnc(C(F)(F)F)c2)cn1`, the pIC50 is 8.49. The same measure, in the same setting: then `Cn1ncc(CC(c2ccc(-c3c(-n4cnnn4)ccc(Cl)c3F)c[n+]2[O-])n2cc(-c3ccnn3C(F)F)cn2)n1` (stereo not shown), with 7.20; and `[O-][n+]1cc(-c2c(-n3cnnn3)ccc(Cl)c2F)ccc1[C@H](Cc1cnn(C(F)F)n1)n1cc(-c2ccnc(C(F)(F)F)c2)cn1`, with 6.20. With `Nc1ccc(-c2cnn(C(Cc3ccccc3)c3c(F)cc(-c4cc(Cl)ccc4-n4cnnn4)c[n+]3[O-])c2)c(F)n1` (stereo not shown), the pIC50 was 8.36. Same read-out and setting: the same measure for `Cn1ncc(C[C@H](c2ccc(-c3c(-n4cc(Cl)nn4)ccc(Cl)c3F)c[n+]2[O-])n2cc(-c3ccnc(C(F)(F)F)c3)cn2)n1`: 7.45; for `CN(CC(c1ccc(-c2c(-n3cnnn3)ccc(Cl)c2F)c[n+]1[O-])n1cc(-c2ccncc2)cn1)C(=O)CCc1ccccc1` (stereo not shown): 7.84; for `CN(CC(c1ccc(-c2c(-n3cnnn3)ccc(Cl)c2F)c[n+]1[O-])n1cc(-c2cc[n+]([O-])cc2)cn1)C(=O)CCc1ccccc1` (single isomer, unassigned) [P349]: 7.52. Same read-out and setting: the same measure for `[O-][n+]1cc(-c2c(-n3cnnn3)ccc(Cl)c2F)ccc1[C@@H](Cc1ccc(F)cc1)n1cc(-c2nn(C(F)F)nc2Cl)cn1`: 6.40. For the compound `[O-][n+]1cc(-c2c(-n3cnnn3)ccc(Cl)c2F)ccc1[C@@H](Cc1ccn(CC(F)(F)F)n1)n1cc(-c2ccnc(C(F)(F)F)c2)cn1`, the negative logarithm of the IC50 (pIC50) is 8.55.

As for `Cn1ncc(C[C@@H](c2ccc(-c3c(-n4cnnn4)ccc(Cl)c3F)c[n+]2[O-])n2cc(-c3ccnc(C(F)(F)F)c3)cn2)n1`, the pIC50 is 6.33. Same read-out and setting: then `[2H]C([2H])(C[C@H](c1ccc(-c2c(-n3cc(C(F)(F)F)nn3)ccc(Cl)c2F)c[n+]1[O-])n1cc(-n2cnnc2C)cn1)OC(F)F`, with 6.67.

Take `[O-][n+]1cc(-c2c(-n3cnnn3)ccc(Cl)c2F)ccc1C(Cc1cnn(-c2ccccc2)n1)n1cc(-c2ccnn2C(F)F)cn1` (stereo not shown): the pIC50 is 6.75. Same read-out and setting: then `Cn1ncc(CC(c2ccc(-c3c(-n4cnnn4)ccc(Cl)c3F)c[n+]2[O-])n2cc(-c3ccnc(C(F)(F)F)c3)cn2)n1` (stereo not shown), with 7.43; and `NC1CN(C(=O)C2CC2CC(c2ccc(-c3c(-n4cnnn4)ccc(Cl)c3F)c[n+]2[O-])n2cc(-c3ccncc3)cn2)CC12CC2` (stereo not shown), with 6.54; and `[O-][n+]1cc(-c2c(-n3cnnn3)ccc(Cl)c2F)ccc1[C@@H](CC1CC1)n1cc(-c2cnn(C(F)F)n2)cn1`, with 6.18. On the same count and under the same terms, then `Cn1ncc(C[C@H](c2ccc(-c3c(-n4cnnn4)ccc(Cl)c3F)c[n+]2[O-])n2cc(-c3ccnc(C(F)(F)F)c3)cn2)n1`, with 8.28; and `[O-][n+]1cc(-c2c(-n3cc(Cl)nn3)ccc(Cl)c2F)ccc1[C@@H](Cn1cccn1)n1cc(-c2cnn(C(F)F)n2)cn1`, with 6.88; and `[O-][n+]1cc(-c2c(-n3cnnn3)ccc(Cl)c2F)ccc1C(Cc1cnn(-c2ccccc2)n1)n1cc(-c2ccnc(C(F)(F)F)c2)cn1` (stereo not shown), with 6.67. Turning to `[O-][n+]1cc(-c2c(-n3cnnn3)ccc(Cl)c2F)ccc1[C@H](Cc1ccn(CC(F)(F)F)n1)n1cc(-c2ccnc(C(F)(F)F)c2)cn1`, the pIC50 is 6.76. Same read-out and setting: then `[O-][n+]1cc(-c2c(-n3cnnn3)ccc(Cl)c2F)ccc1[C@@H](CCOC(F)F)n1cc(-c2nn(C(F)F)nc2F)cn1`, with 7.44; and `COC(=O)Nc1ccc(-c2cnn([C@H](CC(C)OC)c3ccc(-c4c(-n5cnnn5)ccc(Cl)c4F)c[n+]3[O-])c2)cc1` (stereo partly shown), with 7.61.

Turning to `COc1cc(C(Cc2ccn(C(F)F)n2)n2cc(-c3ccc(C(=O)O)c(F)c3)cn2)[n+]([O-])cc1-c1cc(Cl)ccc1C(C)=O` (stereo not shown), the pIC50 was 7.44.

The target of a further experiment is Factor XIa (Homo sapiens, UniProt P03951). In words: Factor XIa inhibition FLINT assay with fluorophore-quencher peptide substrate 5Fam-[…]-K5Tamra (end point EP or kinetic KIN reads). The experiment is classed as biochemical. To be noted: read-out: FXIa (EP) IC50; end point read at 30 min.
As to `Nc1ccc(-c2cnn(C(Cc3ccccc3)c3ccc(-c4cc(Cl)ccc4-n4cnnn4)c[n+]3[O-])c2)c(F)n1` (stereo not shown), the pIC50 is 8.64.
